Laboratory results from patent publication US6432655B1, “Method of obtaining compositions” (Synaptic Pharmaceutical Corporation, priority 1992, dated 2002).

Sequences of proteins named here, by UniProt entry; tags and fusion partners are left off.
UniProt P32305, whole entry: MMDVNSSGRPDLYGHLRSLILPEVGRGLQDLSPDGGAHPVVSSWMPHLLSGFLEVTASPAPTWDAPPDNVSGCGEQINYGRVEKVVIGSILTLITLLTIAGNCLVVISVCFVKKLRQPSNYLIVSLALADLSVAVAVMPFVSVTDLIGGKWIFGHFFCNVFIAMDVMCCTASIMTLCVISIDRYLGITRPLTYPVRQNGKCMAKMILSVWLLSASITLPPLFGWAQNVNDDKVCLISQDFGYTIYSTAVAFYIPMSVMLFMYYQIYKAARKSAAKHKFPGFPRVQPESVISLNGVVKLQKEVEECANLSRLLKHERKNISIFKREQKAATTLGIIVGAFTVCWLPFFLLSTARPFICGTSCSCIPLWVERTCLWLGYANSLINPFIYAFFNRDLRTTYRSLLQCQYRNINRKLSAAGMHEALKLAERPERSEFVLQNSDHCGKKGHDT

Target: T1, 5-HT4B receptor (Rattus norvegicus, UniProt P32305)
T1 construct: from tissue; host or cells: rat brain cryostat sections (20 µm)
Test: [3H]5-CT receptor autoradiography on rat brain sections
Assay type: binding
Conditions: 5 μM methiothepin

effect on [3H]5-CT binding remaining after the masks: abolished
Compound: CSc1ccc2c(c1)C(N1CCN(C)CC1)Cc1ccccc1S2 (stereo not shown) [Methiothepin]
